Test results: article PMC12102759 (Protein Science : A Publication of the Protein Society, 2025)

The chains behind the UniProt entries cited, without tags or fusion partners. Residues count along the entry.
UniProt Q9Y490, 309-401: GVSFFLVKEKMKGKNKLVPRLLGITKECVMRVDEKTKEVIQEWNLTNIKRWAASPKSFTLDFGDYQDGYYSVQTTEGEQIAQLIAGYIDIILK

Each sequence was assayed against TLN1 PTB (Homo sapiens, UniProt Q9Y490).
Assay type: binding

Sequence	DMS-derived PSSM value of the single-substitution variant
FPTDERSWVYSPLHYS R6S (FPTDESSWVYSPLHYS)	0.3307
FPTDERSWVYSPLHYS R6T (FPTDETSWVYSPLHYS)	0.02251
FPTDERSWVYSPLHYS R6V (FPTDEVSWVYSPLHYS)	0.1078
FPTDERSWVYSPLHYS R6W (FPTDEWSWVYSPLHYS)	0.02732
FPTDERSWVYSPLHYS R6Y (FPTDEYSWVYSPLHYS)	0.01255
FPTDERSWVYSPLHYS S7A (FPTDERAWVYSPLHYS)	0.008837
FPTDERSWVYSPLHYS S7D (FPTDERDWVYSPLHYS)	0.02138
FPTDERSWVYSPLHYS S7E (FPTDEREWVYSPLHYS)	0.01776
FPTDERSWVYSPLHYS S7F (FPTDERFWVYSPLHYS)	0.001838
FPTDERSWVYSPLHYS S7G (FPTDERGWVYSPLHYS)	0.01644
FPTDERSWVYSPLHYS S7H (FPTDERHWVYSPLHYS)	0.04425
FPTDERSWVYSPLHYS S7I (FPTDERIWVYSPLHYS)	0.3729
FPTDERSWVYSPLHYS S7K (FPTDERKWVYSPLHYS)	0.05583
FPTDERSWVYSPLHYS S7L (FPTDERLWVYSPLHYS)	0.0338
FPTDERSWVYSPLHYS S7M (FPTDERMWVYSPLHYS)	0.1439
FPTDERSWVYSPLHYS S7N (FPTDERNWVYSPLHYS)	0.009808
FPTDERSWVYSPLHYS S7P (FPTDERPWVYSPLHYS)	0
FPTDERSWVYSPLHYS S7Q (FPTDERQWVYSPLHYS)	0.002731
FPTDERSWVYSPLHYS S7R (FPTDERRWVYSPLHYS)	0.1131
FPTDERSWVYSPLHYS S7S	0.03397
FPTDERSWVYSPLHYS S7T (FPTDERTWVYSPLHYS)	0.03548
FPTDERSWVYSPLHYS S7V (FPTDERVWVYSPLHYS)	0.01687
FPTDERSWVYSPLHYS S7W (FPTDERWWVYSPLHYS)	0.0356
FPTDERSWVYSPLHYS S7Y (FPTDERYWVYSPLHYS)	0.03547

Sequence	DMS-derived PSSM value of the single-substitution variant
FPTDERSWVYSPLHYS S11A (FPTDERSWVYAPLHYS)	0.1933
FPTDERSWVYSPLHYS S11D (FPTDERSWVYDPLHYS)	0
FPTDERSWVYSPLHYS S11E (FPTDERSWVYEPLHYS)	0
FPTDERSWVYSPLHYS S11F (FPTDERSWVYFPLHYS)	0
FPTDERSWVYSPLHYS S11G (FPTDERSWVYGPLHYS)	0
FPTDERSWVYSPLHYS S11H (FPTDERSWVYHPLHYS)	0
FPTDERSWVYSPLHYS S11I (FPTDERSWVYIPLHYS)	0
FPTDERSWVYSPLHYS S11K (FPTDERSWVYKPLHYS)	0
FPTDERSWVYSPLHYS S11L (FPTDERSWVYLPLHYS)	0
FPTDERSWVYSPLHYS S11M (FPTDERSWVYMPLHYS)	0.09281
FPTDERSWVYSPLHYS S11N (FPTDERSWVYNPLHYS)	0.03654
FPTDERSWVYSPLHYS S11P (FPTDERSWVYPPLHYS)	0.2041
FPTDERSWVYSPLHYS S11Q (FPTDERSWVYQPLHYS)	0
FPTDERSWVYSPLHYS S11R (FPTDERSWVYRPLHYS)	0
FPTDERSWVYSPLHYS S11S	0.3508
FPTDERSWVYSPLHYS S11T (FPTDERSWVYTPLHYS)	0.0282
FPTDERSWVYSPLHYS S11V (FPTDERSWVYVPLHYS)	0.04718
FPTDERSWVYSPLHYS S11W (FPTDERSWVYWPLHYS)	0.0282
FPTDERSWVYSPLHYS S11Y (FPTDERSWVYYPLHYS)	0.01898
FPTDERSWVYSPLHYS S16A (FPTDERSWVYSPLHYA)	0.1376
FPTDERSWVYSPLHYS S16D (FPTDERSWVYSPLHYD)	0.02039
FPTDERSWVYSPLHYS S16E (FPTDERSWVYSPLHYE)	0.04737
FPTDERSWVYSPLHYS S16F (FPTDERSWVYSPLHYF)	0.01755
FPTDERSWVYSPLHYS S16G (FPTDERSWVYSPLHYG)	0.1494

Sequence	DMS-derived PSSM value of the single-substitution variant
FPTDERSWVYSPLHYS S16H (FPTDERSWVYSPLHYH)	0.05241
FPTDERSWVYSPLHYS S16I (FPTDERSWVYSPLHYI)	0.1835
FPTDERSWVYSPLHYS S16K (FPTDERSWVYSPLHYK)	0
FPTDERSWVYSPLHYS S16L (FPTDERSWVYSPLHYL)	0.02196
FPTDERSWVYSPLHYS S16M (FPTDERSWVYSPLHYM)	0.03471
FPTDERSWVYSPLHYS S16N (FPTDERSWVYSPLHYN)	0.02533
FPTDERSWVYSPLHYS S16P (FPTDERSWVYSPLHYP)	0.03064
FPTDERSWVYSPLHYS S16Q (FPTDERSWVYSPLHYQ)	0.008877
FPTDERSWVYSPLHYS S16R (FPTDERSWVYSPLHYR)	0.0204
FPTDERSWVYSPLHYS S16S	0.02006
FPTDERSWVYSPLHYS S16T (FPTDERSWVYSPLHYT)	0.07976
FPTDERSWVYSPLHYS S16V (FPTDERSWVYSPLHYV)	0.1122
FPTDERSWVYSPLHYS S16W (FPTDERSWVYSPLHYW)	0.005315
FPTDERSWVYSPLHYS S16Y (FPTDERSWVYSPLHYY)	0.03257
FPTDERSWVYSPLHYS T3A (FPADERSWVYSPLHYS)	0.01832
FPTDERSWVYSPLHYS T3D (FPDDERSWVYSPLHYS)	0.01221
FPTDERSWVYSPLHYS T3E (FPEDERSWVYSPLHYS)	0.1875
FPTDERSWVYSPLHYS T3F (FPFDERSWVYSPLHYS)	0.002155
FPTDERSWVYSPLHYS T3G (FPGDERSWVYSPLHYS)	0.01993
FPTDERSWVYSPLHYS T3H (FPHDERSWVYSPLHYS)	0.04202
FPTDERSWVYSPLHYS T3I (FPIDERSWVYSPLHYS)	0.01059
FPTDERSWVYSPLHYS T3K (FPKDERSWVYSPLHYS)	0.003486
FPTDERSWVYSPLHYS T3L (FPLDERSWVYSPLHYS)	0.2378
FPTDERSWVYSPLHYS T3M (FPMDERSWVYSPLHYS)	0.004936

Sequence	DMS-derived PSSM value of the single-substitution variant
FPTDERSWVYSPLHYS T3N (FPNDERSWVYSPLHYS)	0.01686
FPTDERSWVYSPLHYS T3P (FPPDERSWVYSPLHYS)	0.03563
FPTDERSWVYSPLHYS T3Q (FPQDERSWVYSPLHYS)	0.07291
FPTDERSWVYSPLHYS T3R (FPRDERSWVYSPLHYS)	0.02199
FPTDERSWVYSPLHYS T3S (FPSDERSWVYSPLHYS)	0.03707
FPTDERSWVYSPLHYS T3T	0.0268
FPTDERSWVYSPLHYS T3V (FPVDERSWVYSPLHYS)	0.009255
FPTDERSWVYSPLHYS T3W (FPWDERSWVYSPLHYS)	0.08976
FPTDERSWVYSPLHYS T3Y (FPYDERSWVYSPLHYS)	0.1508
FPTDERSWVYSPLHYS V9A (FPTDERSWAYSPLHYS)	0.006908
FPTDERSWVYSPLHYS V9D (FPTDERSWDYSPLHYS)	0.02997
FPTDERSWVYSPLHYS V9E (FPTDERSWEYSPLHYS)	0.05692
FPTDERSWVYSPLHYS V9F (FPTDERSWFYSPLHYS)	0.008665
FPTDERSWVYSPLHYS V9G (FPTDERSWGYSPLHYS)	0.01134
FPTDERSWVYSPLHYS V9H (FPTDERSWHYSPLHYS)	0.01572
FPTDERSWVYSPLHYS V9I (FPTDERSWIYSPLHYS)	0.003533
FPTDERSWVYSPLHYS V9K (FPTDERSWKYSPLHYS)	0.04952
FPTDERSWVYSPLHYS V9L (FPTDERSWLYSPLHYS)	0.03511
FPTDERSWVYSPLHYS V9M (FPTDERSWMYSPLHYS)	0.02699
FPTDERSWVYSPLHYS V9N (FPTDERSWNYSPLHYS)	0.6095
FPTDERSWVYSPLHYS V9P (FPTDERSWPYSPLHYS)	0
FPTDERSWVYSPLHYS V9Q (FPTDERSWQYSPLHYS)	0.01572
